Measurements taken from PubChem BioAssay (Tox21).
Values joined by “and” are separate entries in the source; they are usually repeats but may differ in a detail not shown here. Equal values may be shown once. The list shows a part of the results, in another mix than the full data. Records with an inconclusive call do not appear. The source holds several records for some structures; these can differ, active in one and inactive in another. Active and inactive are the calls of the source. Unless noted, calls follow the shape of the dose curve; as a rule, active = well fitted curve in the direction sought with a large enough effect in the repeat runs; inconclusive = weak or mixed curves; inactive = no such curve, though single readings can be large; an effect the other way counts as inactive or inconclusive.

The chains behind the UniProt entries cited, without tags or fusion partners.
UniProt P19793, whole entry: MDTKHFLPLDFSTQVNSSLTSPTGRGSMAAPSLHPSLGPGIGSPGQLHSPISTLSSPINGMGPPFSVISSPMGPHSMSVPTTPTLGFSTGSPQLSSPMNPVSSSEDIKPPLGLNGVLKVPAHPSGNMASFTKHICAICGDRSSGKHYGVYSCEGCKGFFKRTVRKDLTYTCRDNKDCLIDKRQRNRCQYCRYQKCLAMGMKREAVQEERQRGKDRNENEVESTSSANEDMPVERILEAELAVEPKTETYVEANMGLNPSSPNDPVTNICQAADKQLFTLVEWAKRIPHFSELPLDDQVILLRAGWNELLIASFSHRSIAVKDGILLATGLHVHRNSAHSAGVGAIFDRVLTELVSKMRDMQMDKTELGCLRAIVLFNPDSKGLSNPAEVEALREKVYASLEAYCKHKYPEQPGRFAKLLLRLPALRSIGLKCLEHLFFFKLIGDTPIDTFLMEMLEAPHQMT
UniProt P08659, whole entry: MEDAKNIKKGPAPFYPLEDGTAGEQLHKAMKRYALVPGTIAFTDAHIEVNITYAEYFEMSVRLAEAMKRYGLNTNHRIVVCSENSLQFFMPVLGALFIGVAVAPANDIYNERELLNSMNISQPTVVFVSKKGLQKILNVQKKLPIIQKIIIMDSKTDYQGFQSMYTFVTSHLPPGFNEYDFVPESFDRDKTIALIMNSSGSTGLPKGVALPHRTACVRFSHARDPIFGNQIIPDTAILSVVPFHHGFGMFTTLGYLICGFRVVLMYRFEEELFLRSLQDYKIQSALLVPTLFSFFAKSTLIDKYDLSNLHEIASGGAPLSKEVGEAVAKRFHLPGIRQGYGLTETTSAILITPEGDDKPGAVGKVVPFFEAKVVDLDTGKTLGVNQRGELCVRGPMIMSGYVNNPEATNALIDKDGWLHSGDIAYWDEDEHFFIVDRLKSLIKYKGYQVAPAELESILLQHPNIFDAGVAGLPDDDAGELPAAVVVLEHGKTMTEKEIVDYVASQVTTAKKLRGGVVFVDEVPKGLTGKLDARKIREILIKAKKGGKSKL
UniProt Q14994, whole entry: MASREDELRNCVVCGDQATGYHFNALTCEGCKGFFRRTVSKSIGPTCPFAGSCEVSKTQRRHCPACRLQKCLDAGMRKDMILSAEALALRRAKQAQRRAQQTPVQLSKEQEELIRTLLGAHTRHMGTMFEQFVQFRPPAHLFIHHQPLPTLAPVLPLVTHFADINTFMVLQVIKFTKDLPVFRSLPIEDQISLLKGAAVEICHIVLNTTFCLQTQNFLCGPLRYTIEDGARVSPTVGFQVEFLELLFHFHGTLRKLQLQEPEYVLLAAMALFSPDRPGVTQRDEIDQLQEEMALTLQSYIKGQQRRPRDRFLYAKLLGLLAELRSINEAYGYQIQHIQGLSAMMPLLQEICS

Tests used:
[1] = qHTS assay to identify small molecule antagonists of the vitamin D receptor (VDR) signaling pathway - cell viability counter screen (AID 743225); conditions: VDR-bla HEK293T viability, CellTiter-Glo luminescence, 16 h; also: % is scaled to controls: 0 for no effect and ±100 for the full control effect; nearly all actives have a fitted effect of over 50% in size
Summary of the method: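 Viability counter screen run in the same wells as the beta-lactamase reporter assay: HEK 293T VDR-UAS-bla cells, 16 h compound exposure at 37C with 3 nM (final) 1-alpha,25-dihydroxyvitamin D3. CellTiter-Glo luminescence, 30 min, room temperature.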

[2] = qHTS assay to identify small molecule agonists of the NFkB signaling pathway - cell viability counter screen (AID 1159515; calls by dose curve; also: % is scaled to controls: 0 for no effect and ±100 for the full control effect; nearly all actives have a fitted effect of over 55% in size); conditions: NFkB-bla ME-180 viability, CellTiter-Glo luminescence, 5 h
Summary of the method: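 5 hr compound treatment of NFkB-bla ME-180 cells (2,000/well, seeded overnight beforehand), followed by reporter substrate for 1.5 hr. CellTiter-Glo added afterward; luminescence after 30 min RT.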

[3] = qHTS assay to identify small molecule agonists of the endoplasmic reticulum stress response signaling pathway (AID 1159516; active = well fitted activation curve with a large enough effect in the signal ratio in the repeat runs, not every such curve was filed as active; the % refers to the signal ratio; also: % is scaled to controls: 0 for no effect and ±100 for the full control effect); conditions: ESRE-bla HeLa, ER stress beta-lactamase reporter, 5 h
Summary of the method: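 Reporter HeLa cells (ESRE-beta-lactamase) underwent 5 hr compound incubation at 37 C and 5% CO2 in quantitative HTS format. Detection followed 2 hr of FRET substrate loading at room temperature.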

[4] = qHTS assay to identify small molecule agonists of the endoplasmic reticulum stress response signaling pathway - cell viability counter screen (AID 1159517; calls by dose curve;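 also: HeLa cells carrying an ER stress response element beta-lactamase reporter; % is scaled to controls: 0 for no effect and ±100 for the full control effect; nearly all actives have a fitted effect of over 50% in size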); conditions: ESRE-bla HeLa viability, CellTiter-Glo luminescence, 5 h
Summary of the method: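 Luminescence readout: CellTiter-Glo, 30 min RT, same wells as the ESRE-bla reporter read. HeLa ESRE-bla, 1,500 cells/well, o/n 37 C; cpd 5 hr 37 C/5% CO2.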

[5] = qHTS assay to identify small molecule agonists of the AP-1 signaling pathway - cell viability counter screen (AID 1159525; calls by dose curve; also: nearly all actives have a fitted effect of over 55% in size); conditions: ME-180 AP-1-bla cells viability, ATP luminescence, 5 h; at 76.8 µM (top of the series) unless noted
Summary of the method: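 ME-180 AP-1-bla, 2500 cells/well, Opti-MEM + 0.5% dialyzed FBS; overnight 37 °C; cpd 15-pt titration, 5 h 37 °C; CellTiter-Glo 30 min RT; luminescence read; normalised to TOAB and DMSO controls.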

[6] = qHTS assay to identify small molecule agonists of the AP-1 signaling pathway (AID 1159526; calls by dose curve; also: % is scaled to controls: 0 for no effect and ±100 for the full control effect); conditions: ME-180 (cervical carcinoma) AP-1-bla reporter, beta-lactamase FRET ratio, 5 h
[7] = biological target: Retinoic acid receptor RXR-alpha (Homo sapiens) (UniProt P19793); assay: qHTS assay to identify small molecule agonists of the RXR signaling pathway (AID 1159527; calls by dose curve; also: % is scaled to controls: 0 for no effect and ±100 for the full control effect; nearly all actives have a fitted effect of over 35% in size); conditions: HEK293T RXRa-UAS-bla, beta-lactamase ratio, 16 h; series mostly up to 76.8 µM
Summary of the method: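 Agonist mode; 9-cis retinoic acid positive control. HEK 293T UAS-bla reporter cells, 2% charcoal-stripped FBS, 16 hr compound exposure at 37 C/5% CO2. LiveBLAzer B/G FRET substrate 2 hr RT; ex 405, em 460/530 nm.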

[8] = qHTS assay to identify small molecule agonists of the retinoic acid receptor (RAR) signaling pathway (AID 1159553); conditions: C3RL4 RARE luciferase reporter, agonist, 6 h; also: % is scaled to controls: 0 for no effect and ±100 for the full control effect
Summary of the method: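 Activation of retinol signaling was monitored via a RARE luciferase reporter in C3RL4 cells. After 6 hr compound treatment at 37 C, detection reagent was added for 30 min at room temperature before luminescence reading.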

[9] = qHTS assay to identify small molecule antagonists of the estrogen related receptor (ERR) signaling pathway from Tox21 library - cell viability counter screen (AID 1224834); conditions: ERR reporter cells viability, CellTiter-Fluor, 17.5 h; at 92.4 µM (top of the series); also: % is scaled to controls: 0 for no effect and ±100 for the full control effect; nearly all actives have a fitted effect of over 30% in size
Summary of the method: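 CellTiter-Fluor fluorescence measured; ERR cells; 17.5 h compound incubation at 37 C; 30 min reagent step.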

[10] = biological target: Luciferin 4-monooxygenase (Photinus pyralis) (UniProt P08659); assay: qHTS assay to identify small molecule inhibitors of firefly luciferase (AID 1224835); also: nearly all actives have a fitted effect of over 25% in size; also: potency is read from the fitted curve at half-maximal effect; as to activity change, negative = inhibition: % is scaled to controls: 0 for no effect and ±100 for the full control effect; conditions: purified P. pyralis luciferase, luminescence inhibition; series mostly up to 115 µM
Summary of the method: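 Quantitative HTS format; KM concentrations of both substrates. Purified P. pyralis FLuc activity quantified from luminescence images.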

[11] = biological target: Nuclear receptor ROR-gamma (Homo sapiens) (UniProt P51449); assay: qHTS assay to identify small molecule antagonists of the retinoid-related orphan receptor gamma (ROR-gamma) signaling pathway (AID 1159521;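 also: CHO cells with doxycycline inducible ROR-gamma driving an RORE luciferase reporter; top concentration of the series differs between compounds; % is scaled to controls: 0 for no effect and ±100 for the full control effect; nearly all actives have a fitted effect of over 50% in size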); conditions: Tet-on RORgamma CHO cells, RORE-luciferase, 16 h
[12] = qHTS assay to identify small molecule antagonists of the retinoic acid receptor (RAR) signaling pathway (AID 1159552; also: % is scaled to controls: 0 for no effect and ±100 for the full control effect; nearly all actives have a fitted effect of over 50% in size); conditions: C3RL4 RARE luciferase reporter, retinol-stimulated, 6 h
Summary of the method: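 Luminescence from a RARE luciferase reporter in C3RL4 cells served as read-out. Cells received compounds together with 1 uM final retinol and incubated 6 hr at 37 C before detection reagent was added for 30 min at room temperature.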

[13] = biological target: Nuclear receptor subfamily 1 group I member 3 (Homo sapiens) (UniProt Q14994); assay: qHTS assay to identify small molecule antagonists of the constitutive androstane receptor (CAR) signaling pathway (AID 1224838); conditions: HepG2-CYP2B6-hCAR luciferase, CITCO-stimulated, 24 h; at 92.4 µM (top of the series);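 also: HepG2 cells stably expressing hCAR with CYP2B6 luciferase reporter stimulated by CITCO; % is scaled to controls: 0 for no effect and ±100 for the full control effect; nearly all actives have a fitted effect of over 40% in size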
[14] = biological target: Nuclear receptor subfamily 1 group I member 3 (Homo sapiens) (UniProt Q14994); assay: qHTS assay to identify small molecule agonists of the constitutive androstane receptor (CAR) signaling pathway (AID 1224839); conditions: HepG2 hCAR CYP2B6-luciferase, agonist mode, 24 h; series mostly up to 92.4 µM;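 also: HepG2 cells stably carrying human CAR and a CYP2B6 luciferase reporter; % is scaled to controls: 0 for no effect and ±100 for the full control effect; nearly all actives have a fitted effect of over 15% in size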

O=[N+]([O-])[O-].[NH4+]
inactive: viability change, negative = cytotoxic ([1]; at 61 µM (top of the series)) 12.4% and 1.81% | activity, negative = cytotoxic ([2]; at 61 µM (top of the series)) 0.432% and 6% | activation ([3]; at 61 µM (top of the series)) -0.138% and 1.65% | activity change, negative = cytotoxicity ([4]; at 61 µM (top of the series)) -14.7% and 6.48% | viability change, negative = cytotoxic [5] -0.632% and 22.7% | activation ([6]; at 76.8 µM (top of the series)) 1.2% and 0.494% | Potency [7] | activation ([8]; at 73.3 µM (top of the series)) 1.55% | viability change, negative = cytotoxic [9] 6.79% and 0.287% | Potency [10]

CC(C)OP(C)(=O)OC(C)C
inactive: viability change, negative = cytotoxic ([1]; at 61 µM (top of the series)) -3.22% and 7.12% | activity, negative = cytotoxic ([2]; at 61 µM (top of the series)) 0.627% and 5.7% | activation ([3]; at 61 µM (top of the series)) -4.47% and -0.333% | activity change, negative = cytotoxicity ([4]; at 61 µM (top of the series)) 3.28% and 4.16% | activity change, negative = inhibition ([11]; at 92.4 µM (top of the series)) 0.0286% and -0.568% | viability change, negative = cytotoxic [5] 7.97% and 4.62% | activation ([6]; at 76.8 µM (top of the series)) -5.12% and 0.597% | activity, negative = inhibition ([12]; at 92.4 µM (top of the series)) 68.3% and 5.3% | activation ([8]; at 73.3 µM (top of the series)) 0.985% and 0.676% | viability change, negative = cytotoxic [9] 1.55%
63.3 µM (active) and inactive: Potency [10]

CCN(CC)CCCl
inactive: viability change, negative = cytotoxic ([1]; at 78.8 µM (top of the series)) 8.63% | activity, negative = cytotoxic ([2]; at 78.8 µM (top of the series)) -3.33% | activation ([3]; at 78.8 µM (top of the series)) -2.38% | activity change, negative = cytotoxicity ([4]; at 78.8 µM (top of the series)) -4.79% | activity change, negative = inhibition ([11]; at 92.4 µM (top of the series)) -5.58% | viability change, negative = cytotoxic [5] 10.2% | Potency [7] | activity, negative = inhibition ([12]; at 92.4 µM (top of the series)) -1.06% | activation ([8]; at 94.8 µM (top of the series)) -2.49% | Potency [10]

CP(=O)(O)OCCC[Si](O)(O)O
inactive: viability change, negative = cytotoxic ([1]; at 61 µM (top of the series)) 8.12% | activity, negative = cytotoxic ([2]; at 61 µM (top of the series)) 2.24% | activation ([3]; at 61 µM (top of the series)) -2.01% | activity change, negative = cytotoxicity ([4]; at 61 µM (top of the series)) 3.12% | viability change, negative = cytotoxic [5] 17.2% | activation ([6]; at 76.8 µM (top of the series)) 2.61% | Potency [7] | activity, negative = inhibition ([12]; at 92.4 µM (top of the series)) 3.33% | activation ([8]; at 73.3 µM (top of the series)) 0.394% | viability change, negative = cytotoxic [9] 5.68% | Potency [10] | activity, negative = inhibition [13] -0.532% | Potency [14]

[NH4+].[O-][Cl+3]([O-])([O-])[O-]
inactive: viability change, negative = cytotoxic ([1]; at 61 µM (top of the series)) -11.8% | viability change, negative = cytotoxic ([1]; at 78.8 µM (top of the series)) -2.06% | activity, negative = cytotoxic ([2]; at 61 µM (top of the series)) -5.17% | activity, negative = cytotoxic ([2]; at 78.8 µM (top of the series)) 1% | activation ([3]; at 78.8 µM (top of the series)) -0.103% | viability change, negative = cytotoxic [5] -1.37% and -4.74% | activation ([6]; at 76.8 µM (top of the series)) -0.804% and 1.45% | Potency [7] | viability change, negative = cytotoxic [9] 1.96% and 0.51% | Potency [10]

CCOP(=O)(CC)Oc1ccc([N+](=O)[O-])cc1 (stereo not drawn)
inactive: viability change, negative = cytotoxic ([1]; at 61 µM (top of the series)) 13.3% | activity, negative = cytotoxic ([2]; at 61 µM (top of the series)) 3.88% | activity change, negative = cytotoxicity ([4]; at 61 µM (top of the series)) -3.16% | activity change, negative = inhibition ([11]; at 42.5 µM (top of the series)) -0.858% | viability change, negative = cytotoxic [5] 1.97% [at 35.3 µM] | activation ([6]; at 35.3 µM (top of the series)) -3.53% | activity, negative = inhibition ([12]; at 42.5 µM (top of the series)) -1.04% | activation ([8]; at 73.3 µM (top of the series)) -1.26% | Potency [10]
